Literature values, collected in patent publication US8575131B2, “Glucuronic acid-containing glucan, process for production of same, and use of same” (National University Corporation Kagoshima University, priority 2009, dated 2013).

Settings: in vivo

Substance: PEGASYS: interferon α covalently bound to a PEG chain having a molecular weight of 40,000
- half-life in blood: enhanced dramatically
